# Apparent affinities of Ab-14 variants for a coronavirus HR2 peptide

Reference: Li et al. 2023, doi:10.1038/s41467-023-39022-2. File: FLAb, binding data.

All variants were tested on one target, the spike HR2 peptide PDVDLGDISGINAS (SARS-CoV-2).

Parent scFv Ab-14: VH joined to VL by a 15-residue (Gly4Ser)3 linker. Changes lie in the light chain CDRs alone.
VH: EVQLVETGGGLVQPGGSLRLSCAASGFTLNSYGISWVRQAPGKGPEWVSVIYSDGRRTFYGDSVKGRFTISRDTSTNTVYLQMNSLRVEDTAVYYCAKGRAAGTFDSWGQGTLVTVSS
VL: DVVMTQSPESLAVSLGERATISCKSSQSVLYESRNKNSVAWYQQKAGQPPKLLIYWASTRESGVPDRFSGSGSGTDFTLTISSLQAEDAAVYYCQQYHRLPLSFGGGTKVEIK

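Phage display of a naive human antibody library on the peptide gave the parent. The variants were designed computationally from a first round of random CDR variants and then made and measured. Several design methods are mixed in this list. AlphaSeq pools MATa yeast showing the antibodies with MATalpha yeast showing the peptide. After mating in shaken culture at 30 °C for 16 h, diploids were selected and their barcode pairs sequenced. Read counts were normalised to the haploid input and turned into Kd by a linear fit to BCL2-family pairs of known affinity, for each replicate. Mating was done six times.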

Variants are written as CDR1, CDR2 and CDR3 of the light chain (limits as in the source). Parent: KSSQSVLYESRNKNSVA, WASTRES, QQYHRLPLS. Affinities are written as log10 Kd with Kd in nM; a lower number is a better binder. Where no diploid with the target was found in that replicate, the entry reads "n.d.": below detection, most likely a poor binder, though not proof of it. Three control strains display no target. For all light chain designs, 4% of the pairings with them gave a signal, with a median of 2.64 and one signal in twenty below 1.59, so weak values seen in few replicates may be background. Of ten entries with the parent sequence, four were seen in most replicates (averages 0.34 to 2.37), three in one and three in none, so single entries are noisy. A sequence measured in both rounds can read differently, since the two assays cover different ranges. The authors' rule: three or more of the six replicates give a measured affinity, fewer mean a poor binder.

{"CDR-L1": "HISQSVLYESRNKNSVA", "CDR-L2": "NGSTRES", "CDR-L3": "QQYHRLPLS", "log10 Kd (nM) by replicate": "-0.32 / -0.15 / -0.52 / -0.77 / -0.24 / -0.38"}
{"CDR-L1": "KSSQSVLYESRNKNSVA", "CDR-L2": "WASTRES", "CDR-L3": "TQYHRLPLS", "log10 Kd (nM) by replicate": "n.d. / n.d. / n.d. / n.d. / n.d. / n.d."}
{"CDR-L1": "KCSQSVLYESRNKNSVA", "CDR-L2": "WASTRES", "CDR-L3": "QQYHRLPLS", "log10 Kd (nM) by replicate": "n.d. / n.d. / n.d. / 2.41 / n.d. / n.d."}
{"CDR-L1": "KVDQSQLYESRNKNSVA", "CDR-L2": "NASTRES", "CDR-L3": "QQYHRLPLS", "log10 Kd (nM) by replicate": "-0.10 / -0.26 / -0.28 / -0.48 / -0.26 / -0.19"}
{"CDR-L1": "KVSQSVLYESMNKNSVA", "CDR-L2": "EASTRES", "CDR-L3": "QQYHRLPLS", "log10 Kd (nM) by replicate": "0.60 / 0.76 / 0.18 / 0.72 / 0.61 / 0.39"}
{"CDR-L1": "KSSMLYLEESRNKNSVA", "CDR-L2": "EASTRES", "CDR-L3": "QQYHRLPLS", "log10 Kd (nM) by replicate": "0.17 / 0.09 / 0.04 / -0.47 / 0.30 / 0.17"}
{"CDR-L1": "KLSQSWLYESRLKNSVA", "CDR-L2": "NASQRES", "CDR-L3": "QQYHRLPLS", "log10 Kd (nM) by replicate": "0.94 / 0.43 / 0.48 / 0.27 / 0.63 / 0.58"}
{"CDR-L1": "HFSPSVAYESRNKNSVA", "CDR-L2": "NASTRES", "CDR-L3": "QQYHRLPLS", "log10 Kd (nM) by replicate": "-0.53 / -0.61 / -0.53 / -0.80 / -0.59 / -0.48"}
{"CDR-L1": "KLEQQWEYESRNSNNVA", "CDR-L2": "AASTRED", "CDR-L3": "QQYHRLPLS", "log10 Kd (nM) by replicate": "-0.15 / -0.36 / -0.50 / -0.37 / -0.39 / -0.34"}
{"CDR-L1": "KISSLTMYESVNKNNIA", "CDR-L2": "EMSTRPD", "CDR-L3": "QSYHRLPLS", "log10 Kd (nM) by replicate": "0.29 / 0.15 / 0.02 / 0.29 / 0.18 / 0.27"}
{"CDR-L1": "KLSQSEDYESRNKNSVA", "CDR-L2": "NASTRES", "CDR-L3": "QQYHRLPLS", "log10 Kd (nM) by replicate": "0.15 / 0.28 / 0.10 / 0.11 / 0.24 / 0.33"}
{"CDR-L1": "KLSQSVPYESRNKNSVA", "CDR-L2": "NASTREM", "CDR-L3": "QQYHRLPLS", "log10 Kd (nM) by replicate": "0.13 / 0.22 / 0.12 / 0.22 / 0.06 / 0.37"}
{"CDR-L1": "GIFSQMDGPTEYKENVA", "CDR-L2": "NGNERLP", "CDR-L3": "QQYQRLPLT", "log10 Kd (nM) by replicate": "-0.11 / 0.09 / -0.18 / -0.07 / -0.16 / -0.01"}
{"CDR-L1": "KLRQVTGYESYIRNSVA", "CDR-L2": "QMSTRAE", "CDR-L3": "QDYHRLPLS", "log10 Kd (nM) by replicate": "0.55 / 0.27 / 1.66 / 0.50 / 0.18 / 1.28"}
{"CDR-L1": "KLYQSVLYESRNKNNVA", "CDR-L2": "GASTRES", "CDR-L3": "QQYHRLPLS", "log10 Kd (nM) by replicate": "-0.61 / -0.53 / -0.64 / -0.53 / -0.53 / -0.32"}
{"CDR-L1": "KISQSVLYESRNKNSVA", "CDR-L2": "QASTRES", "CDR-L3": "QQYPRLPLS", "log10 Kd (nM) by replicate": "1.21 / 0.74 / 0.60 / 0.58 / 0.55 / 0.75"}
{"CDR-L1": "KLSQSVLYESRNKNNVA", "CDR-L2": "AASQRES", "CDR-L3": "QQYHRLPLS", "log10 Kd (nM) by replicate": "-0.33 / -0.11 / -0.22 / -0.01 / -0.38 / -0.23"}
{"CDR-L1": "MISQLYNMGTFAINSVA", "CDR-L2": "QASERYN", "CDR-L3": "QQYDRLPLM", "log10 Kd (nM) by replicate": "0.48 / 0.62 / 0.28 / 0.83 / 1.30 / 0.45"}
{"CDR-L1": "KESQSVLGEWRNKNSVA", "CDR-L2": "DASTRES", "CDR-L3": "QQYHRLPLS", "log10 Kd (nM) by replicate": "-0.09 / -0.51 / -0.34 / -0.37 / -0.38 / -0.12"}
{"CDR-L1": "RMEWHNSGATEAKNSVA", "CDR-L2": "GVEHRAN", "CDR-L3": "QQYDRLPLE", "log10 Kd (nM) by replicate": "0.47 / 0.58 / 0.60 / 0.21 / 0.48 / 0.67"}
{"CDR-L1": "KIQQTHVGNEKKMEAIA", "CDR-L2": "QGDQRCQ", "CDR-L3": "QSYDRLPLS", "log10 Kd (nM) by replicate": "0.26 / 0.46 / 0.25 / -0.14 / 0.22 / 0.24"}
{"CDR-L1": "KVSQSVGYESGTKNSVA", "CDR-L2": "NASHRES", "CDR-L3": "QQYHRLPLS", "log10 Kd (nM) by replicate": "0.87 / 0.93 / 1.39 / 0.97 / 0.79 / 1.15"}
{"CDR-L1": "KLQQSKLYESRNKNSVA", "CDR-L2": "NASTRES", "CDR-L3": "QQYHRLPLS", "log10 Kd (nM) by replicate": "-0.05 / -0.13 / -0.19 / -0.15 / -0.02 / -0.02"}
{"CDR-L1": "KSSQSDLYESRNKHSVA", "CDR-L2": "HAHTRAR", "CDR-L3": "QQYHKLPLS", "log10 Kd (nM) by replicate": "3.26 / n.d. / 2.64 / n.d. / n.d. / n.d."}
{"CDR-L1": "KSSQSVLYESRNKNSVA", "CDR-L2": "HASTRES", "CDR-L3": "QQYHRLPLD", "log10 Kd (nM) by replicate": "1.72 / 1.43 / 3.52 / 1.46 / 1.71 / 1.10"}
{"CDR-L1": "KSSQSVMYESRNKNSVA", "CDR-L2": "YASTRES", "CDR-L3": "QQYHRLPLS", "log10 Kd (nM) by replicate": "0.58 / 0.83 / 1.11 / 0.87 / 1.54 / 0.92"}
{"CDR-L1": "HISMMVGTKGYNKNSVA", "CDR-L2": "NSETRED", "CDR-L3": "QQYHRLPLS", "log10 Kd (nM) by replicate": "n.d. / 1.55 / 2.18 / 2.89 / 2.26 / 2.60"}

Excerpt, the final 2 entries:

{"CDR-L1": "KSSQSVMYESRNKNSVA", "CDR-L2": "YASTRES", "CDR-L3": "QQYHRLPLS", "log10 Kd (nM) by replicate": "0.58 / 0.83 / 1.11 / 0.87 / 1.54 / 0.92"}
{"CDR-L1": "HISMMVGTKGYNKNSVA", "CDR-L2": "NSETRED", "CDR-L3": "QQYHRLPLS", "log10 Kd (nM) by replicate": "n.d. / 1.55 / 2.18 / 2.89 / 2.26 / 2.60"}